Laboratory results: publication PMC4917254, “Kavain, the Major Constituent of the Anxiolytic Kava Extract, Potentiates GABAA Receptors: Functional Characteristics and Molecular Mechanism” (PLoS ONE, 2016)

The chains behind the UniProt entries cited, without tags or fusion partners. Residues count along the entry.
UniProt P14867, 28-456: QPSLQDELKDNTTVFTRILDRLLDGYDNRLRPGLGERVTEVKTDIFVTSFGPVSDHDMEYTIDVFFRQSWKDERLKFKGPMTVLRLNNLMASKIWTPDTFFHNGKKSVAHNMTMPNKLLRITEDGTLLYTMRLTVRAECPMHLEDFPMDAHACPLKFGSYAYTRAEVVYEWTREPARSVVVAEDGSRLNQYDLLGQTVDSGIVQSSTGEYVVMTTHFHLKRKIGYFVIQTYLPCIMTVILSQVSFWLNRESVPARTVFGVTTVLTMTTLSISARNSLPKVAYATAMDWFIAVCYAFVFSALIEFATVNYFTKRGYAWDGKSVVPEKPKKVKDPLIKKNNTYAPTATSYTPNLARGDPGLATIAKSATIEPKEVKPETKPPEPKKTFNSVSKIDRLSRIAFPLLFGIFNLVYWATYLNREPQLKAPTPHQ
UniProt P18507, 40-475: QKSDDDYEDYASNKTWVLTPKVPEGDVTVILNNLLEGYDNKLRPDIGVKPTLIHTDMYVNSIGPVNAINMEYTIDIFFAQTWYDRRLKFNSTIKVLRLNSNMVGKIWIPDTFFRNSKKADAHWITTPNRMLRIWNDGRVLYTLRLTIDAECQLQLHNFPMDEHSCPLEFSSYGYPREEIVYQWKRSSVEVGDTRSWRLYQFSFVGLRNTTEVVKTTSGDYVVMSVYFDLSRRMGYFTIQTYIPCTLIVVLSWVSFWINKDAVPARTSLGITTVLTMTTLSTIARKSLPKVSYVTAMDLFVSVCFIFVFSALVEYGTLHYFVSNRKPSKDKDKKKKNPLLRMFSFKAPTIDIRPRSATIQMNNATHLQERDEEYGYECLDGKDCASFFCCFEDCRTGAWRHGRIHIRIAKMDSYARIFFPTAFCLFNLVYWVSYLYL
UniProt P47870, 25-512 limits assumed: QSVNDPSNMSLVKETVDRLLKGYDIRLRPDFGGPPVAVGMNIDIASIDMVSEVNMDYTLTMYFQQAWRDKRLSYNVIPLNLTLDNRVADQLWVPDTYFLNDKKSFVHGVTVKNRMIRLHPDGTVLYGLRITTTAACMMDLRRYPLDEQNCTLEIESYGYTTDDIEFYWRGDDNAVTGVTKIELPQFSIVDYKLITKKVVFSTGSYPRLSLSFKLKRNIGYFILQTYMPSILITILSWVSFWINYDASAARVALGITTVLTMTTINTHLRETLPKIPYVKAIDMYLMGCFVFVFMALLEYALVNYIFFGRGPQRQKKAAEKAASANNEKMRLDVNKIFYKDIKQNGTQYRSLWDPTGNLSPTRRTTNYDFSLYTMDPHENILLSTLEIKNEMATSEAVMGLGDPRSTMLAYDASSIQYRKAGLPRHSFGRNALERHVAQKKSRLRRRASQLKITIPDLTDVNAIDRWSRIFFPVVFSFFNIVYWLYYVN

Columns and labels:
[1] = Solubility limit of kavain in the recordings
Procedure: Perfusates containing these chemicals were made up fresh before each application. […] All experiments were performed using at least two different batches of oocytes.

[2] = cited from earlier work; for brain concentration: mice, i.p.
[3] = molecular target: T1, α1β2γ2L GABAARs (Homo sapiens, UniProt P14867+P18507+P47870); test: Two-electrode voltage clamp, recombinant α1β2γ2L GABAARs in Xenopus oocytes; assay type: cell-based; conditions: 300 μM kavain, paired t test p > 0.05
T1 construct: expressed in transfected cells; host or cells: Xenopus laevis oocytes injected with mRNA (1:1:3)
Procedure: The expression and functional characterisation of recombinant GABAARs in Xenopus oocytes were performed as previously described. The subunit mRNA ratios for the expression of αβγ receptors were adjusted according to the β subunit isoform in that when β2-containing receptors were expressed, a 1:1:3 ratio was used, whereas when β1- or β3-containing receptors were expressed, a 10:1:10 ratio was used to minimise the expression of homomeric β1/3 homomeric receptors. To express α4β2δ receptors, a 5:1:5 ratio was used, and the pharmacological characteristics of this receptor were as described in Hartiadi et al. (2016). The injection ratio used for the expression of α1β2 and β2γ2L receptors were 1:1 and 1:3 respectively. Approximately 2 to 10 ng of mRNA mixture was injected into each oocyte. Injected oocytes were stored in ND96 storage solution supplemented with 50 μg/mL gentamycin and tetracycline at 18°C.
Two-electrode voltage clamp recordings were performed on oocytes 2–5 days post-injection at room temperature (20–25°C) using a GeneClamp 500B amplifier (ADInstruments, Sydney, NSW, Australia) or a Warner OC-725C Oocyte Clamp (Warner Instrument Corp, Hamden, CT, USA). […]
Alternatively, the modulatory effect was expressed as the fold of potentiation, as shown in Eq 3.

For DL-kavain, the highest soluble concentration [1] is listed as 300 µM, the predicted brain concentration ([2]; larger doses (300 mg/kg) of kavain, predicted by Davies et al. (1992)) is listed as 300 µM and the brain concentration ([2]; 44 mg kavain in 120 mg/kg kavalactone mixture) is listed as 120 µM. For the same substance, the brain concentration ([2]; 100 mg/kg kavain alone, within minutes) was “up to 100 μM” and the “effect of kavain on EC50 and maximal efficacy of GABA” value [3] was “did not affect the EC50 and maximal efficacy of GABA”.

Like-named read-outs stand apart in the source and are kept apart here.
